These are literature values, as cited in PMC8154576, “GPR120/FFAR4 Pharmacology: Focus on Agonists in Type 2 Diabetes Mellitus Drug Discovery” (Journal of Medicinal Chemistry, 2021).

Series [1] deals with hGPR120. The settings on record: read-out: hGPR120 EC50 (β-arr).
In another series the test system is DIO mice. The settings on record: mouse, in vivo.
For series [2], the system named is hGPR120. To be noted: read-out: hGPR120 EC50 (Ca2+).
The next series deals with hGPR40. To be noted: read-out: hGPR40 EC50 (Ca2+).
The conditions of series [3]: in vivo.

Read-outs that look alike come from different tables or passages of the source. Bounds are passed on as bounds.

As to `Cc1ccc(-c2ccc(F)cc2COc2ccc(CCC(=O)O)cc2)cc1` [Compound 4], the “GLP-1 secretion from STC-1 cells” value with STC-1 cells is “statistically significant GLP-1 secretion”.

As to `[2H]C([2H])(Cc1ccc(OCc2cc(F)ccc2-c2ccc(C)cc2)cc1)C(=O)O` [Compound 18], the EC50 – broadly, the concentration that produces a half-maximal response – in the series with hGPR120 [1] is 63.1 nM. The glucose levels result in the series on DIO mice is given as “significant reduction in glucose levels”.

Consider `Cc1ccc(-n2nc(C)c3ccc(-c4ccc([C@@H]5C[C@H]5C(=O)O)cc4)cc32)cc1` [Compound 29], for which the results for the EC50 in the series with hGPR120 [2], in the series with hGPR40 and in the series on muGPR40 were 360 nM, more than 100000 nM and more than 100000 nM, respectively. The oral exposure entry in series [3] is reported as “moderate oral exposure”.
